ChEMBL document CHEMBL1142933, “Rational design of novel, potent small molecule pan-selectin antagonists” (J Med Chem, 2007)
pIC50: −log10 of the molar value.

Molecular target: T1, E-selectin (Homo sapiens, UniProt P16581)
T1 sequence (P16581 whole entry): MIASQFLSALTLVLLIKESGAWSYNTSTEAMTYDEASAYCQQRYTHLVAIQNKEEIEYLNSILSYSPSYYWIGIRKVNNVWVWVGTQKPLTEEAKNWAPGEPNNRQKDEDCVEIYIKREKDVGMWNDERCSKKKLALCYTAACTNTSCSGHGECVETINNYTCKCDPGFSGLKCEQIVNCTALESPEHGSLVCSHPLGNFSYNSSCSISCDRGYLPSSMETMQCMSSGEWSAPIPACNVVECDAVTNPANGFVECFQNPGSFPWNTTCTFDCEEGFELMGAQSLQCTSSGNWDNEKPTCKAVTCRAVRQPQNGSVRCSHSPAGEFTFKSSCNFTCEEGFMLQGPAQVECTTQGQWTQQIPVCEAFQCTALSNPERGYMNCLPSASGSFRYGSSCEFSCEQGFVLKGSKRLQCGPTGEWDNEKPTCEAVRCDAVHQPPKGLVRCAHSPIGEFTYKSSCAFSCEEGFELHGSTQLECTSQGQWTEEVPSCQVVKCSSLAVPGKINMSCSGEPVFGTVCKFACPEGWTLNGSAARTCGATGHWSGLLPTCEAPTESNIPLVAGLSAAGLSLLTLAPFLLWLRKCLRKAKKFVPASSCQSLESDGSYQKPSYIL
Assay: Inhibition of human E-selectin after 2 hrs
Procedure, shortened: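 Competitive ELISA: anti-human Fc-coated wells loaded with human E-, P- or L-selectin/Fc chimera (0.61 nM), 2 h 37 °C. Biotinylated sLeX-tyrosine sulfate polyacrylamide complexed with streptavidin-peroxidase added with compound at varying concentrations (HEPES pH 7.4, 1 mM CaCl2, 1% DMSO), 2 h 37 °C. TMB read-out, OD 450 vs 620 nm. IC50 by four-parameter logistic fit; maximum 500 µM.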

pIC50: < 3.30
SMILES: O=C(O)Cc1cccc(-c2cc(CCCCCCc3ccc(O[C@H]4O[C@H](CO)[C@@H](O)[C@H](O)[C@@H]4O)c(-c4cccc(CC(=O)O)c4)c3)ccc2O[C@H]2O[C@H](CO)[C@@H](O)[C@H](O)[C@@H]2O)c1 [BIMOSIAMOSE]
